Laboratory results: patent US11642345B2, “Replication stress pathway agent compositions and methods for treating cancer” (Boundless Bio, Inc., priority 2020, dated 2023)

System: Colo320 ecDNA+ and Colo320 ecDNA− cells
Experiment: CellTiter-glo viability assay, 7 days, Colo320 ecDNA+ vs ecDNA−
Type: cell-based
Method: Sensitivity of an ecDNA+ (Colo320 ecDNA+) and an ecDNA− (Colo320 ecDNA−) cell line models to WEE1 inhibition was determined by treating each with increasing concentrations of either adavosertib or PD0166285 over a 7 day period. Cell proliferation was determined using a MTS assay (FIG. 27, top panels), while viability was determined using CellTiter-glo assay (FIG. 27 bottom panels).
Cell proliferation was determined using a MTS assay (FIG. 36, top panels), while viability was determined using CellTiter-glo assay (FIG. 36, bottom panels).

For C[C@@H]1COCCN1c1cc(-c2ccnn2C)c2ccnc(-c3ccn[nH]3)c2n1 [BAY1895344], the “sensitivity of Colo320 ecDNA+ compared with ecDNA− cells, viability changes” value was “enhanced sensitivity”.
